Results on two molecules are retold here after PubChem BioAssay AID463116 (University of Pittsburgh Molecular Library Screening Center, 2010).

The structures appear in SMILES notation. The list shows a part of the results, in another mix than the full data. Records with an inconclusive call do not appear. Active and inactive are the calls of the source.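 Rule for the calls: active = inhibition of receptor movement into the nucleus at or above a set limit in both runs, with normal cell brightness and cell count; inconclusive = limit reached in only one run, brightness and count normal; inactive = the rest.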

This assay is described as follows: dynein cargo transport inhibitors, GR-EGFP translocation, confirmation, imaging, high-content imaging, GR-EGFP cells (AID 463116).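 Note: dexamethasone at 1 µM final in well for 30 min; nuclear minus cytoplasmic GR-EGFP mean intensity difference in channel 2.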 Conditions: 3617.4 GR-EGFP nuclear translocation imaging, dexamethasone-induced; at 20 µM; stronger effect = higher value.
`Cc1c2non([O-])c-2c(C)[n+](=O)[n+]1[O-]`: the inhibition (in general, how much of the control response was suppressed) was active: 60.5%.

Turning to `O=c1c2cc([N+](=O)[O-])ccc2[nH]c2c([N+](=O)[O-])cc([N+](=O)[O-])cc12`, the inhibition was inactive: 20.2%.
